The text below walks through data of US10874626B2, “Formulation for use in a method of treatment of pain” (NEVAKAR Inc., priority 2016, dated 2020).

Molecules are shown by their SMILES.

This data set in a line: pH dependent solubility studies (pH 4.0-8.0). As to conditions: APAP alone, overall pH range 4.0-8.0. Type of data set: physicochemical.

On to `CC(=O)Nc1ccc(O)cc1` [Acetaminophen, acetaminophen], for which the “pH dependence of solubility of APAP” value was “no significant difference in solubility”.
